Values quoted from earlier work, collected in US5770687A, “Comformationally constrained backbone cyclized somatostatin analogs” (Peptor Limited, priority 1996, dated 1998).

Amino acid sequences for entries named in this document (tags omitted). A change or cut given only in a name is not applied to a line headed by its entry.
UniProt P30872, whole entry, species assumed: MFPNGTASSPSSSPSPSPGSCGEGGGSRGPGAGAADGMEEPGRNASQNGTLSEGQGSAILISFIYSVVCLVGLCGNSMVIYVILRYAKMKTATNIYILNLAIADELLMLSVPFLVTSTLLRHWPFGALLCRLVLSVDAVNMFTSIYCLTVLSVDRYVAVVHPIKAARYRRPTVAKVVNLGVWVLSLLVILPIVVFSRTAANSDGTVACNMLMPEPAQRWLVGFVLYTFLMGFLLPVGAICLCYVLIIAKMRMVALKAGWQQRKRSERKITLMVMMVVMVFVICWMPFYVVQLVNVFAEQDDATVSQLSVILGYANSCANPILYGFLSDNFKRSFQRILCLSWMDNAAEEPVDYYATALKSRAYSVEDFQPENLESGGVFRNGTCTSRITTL
UniProt P32745, whole entry, species assumed: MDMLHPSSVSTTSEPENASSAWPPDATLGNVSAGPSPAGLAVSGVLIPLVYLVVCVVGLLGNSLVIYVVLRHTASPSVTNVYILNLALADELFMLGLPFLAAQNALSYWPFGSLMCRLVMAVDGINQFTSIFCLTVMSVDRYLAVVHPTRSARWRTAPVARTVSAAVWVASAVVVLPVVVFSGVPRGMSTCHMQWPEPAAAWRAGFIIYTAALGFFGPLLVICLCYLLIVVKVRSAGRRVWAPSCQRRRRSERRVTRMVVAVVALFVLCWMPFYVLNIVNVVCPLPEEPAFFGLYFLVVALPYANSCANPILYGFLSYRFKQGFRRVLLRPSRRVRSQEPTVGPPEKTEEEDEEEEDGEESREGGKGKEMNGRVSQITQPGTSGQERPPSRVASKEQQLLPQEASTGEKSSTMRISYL
UniProt P31391, whole entry, species assumed: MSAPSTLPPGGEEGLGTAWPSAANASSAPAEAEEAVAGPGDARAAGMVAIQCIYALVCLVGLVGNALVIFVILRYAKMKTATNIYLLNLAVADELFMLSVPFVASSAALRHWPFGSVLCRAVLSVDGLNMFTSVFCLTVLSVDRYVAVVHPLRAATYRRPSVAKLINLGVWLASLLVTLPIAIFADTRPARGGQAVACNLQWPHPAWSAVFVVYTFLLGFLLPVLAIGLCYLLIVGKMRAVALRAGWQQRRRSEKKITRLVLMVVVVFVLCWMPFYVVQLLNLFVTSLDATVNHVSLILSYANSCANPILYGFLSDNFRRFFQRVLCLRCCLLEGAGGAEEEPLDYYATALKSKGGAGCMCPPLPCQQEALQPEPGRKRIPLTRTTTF
UniProt P35346: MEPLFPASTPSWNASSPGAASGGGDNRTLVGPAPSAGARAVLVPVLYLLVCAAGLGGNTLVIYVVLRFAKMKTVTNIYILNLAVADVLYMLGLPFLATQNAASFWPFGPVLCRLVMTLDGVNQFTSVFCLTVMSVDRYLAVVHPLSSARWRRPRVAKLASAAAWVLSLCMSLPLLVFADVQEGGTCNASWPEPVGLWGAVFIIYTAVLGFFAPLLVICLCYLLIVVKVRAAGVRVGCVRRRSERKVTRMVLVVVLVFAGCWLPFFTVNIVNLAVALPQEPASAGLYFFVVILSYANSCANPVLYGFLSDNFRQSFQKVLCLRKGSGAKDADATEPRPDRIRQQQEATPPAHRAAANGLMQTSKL

Tests used:
[1] = biological target: SSTR-1 (Homo sapiens, UniProt P30872); details: Table 22; known SST analogs, literature values; cited from earlier work
[2] = biological target: SSTR-3 (Homo sapiens, UniProt P32745); details: Table 22; known SST analogs, literature values; cited from earlier work
[3] = biological target: SSTR-4 (Homo sapiens, UniProt P31391); details: Table 22; known SST analogs, literature values; cited from earlier work
[4] = biological target: human SSTR-5 (Homo sapiens, UniProt P35346); details: Table 22; known SST analogs, literature values; read-out: IC50 value hSSTR 5; cited from earlier work

Substance	IC50 [1]	IC50 [2]	IC50 [3]	IC50 [4]
DPhe^5 -Phe^6 -Phe^7 -DTrp^8 -Lys^9 -Thr^10 -Phe^11 -Thr^12 -NH2 [BIM-23052]	23 nM	0.4 nM	–	–
DPhe^5 -cyclo(Cys^6 -Tyr^7 -DTrp^8 -Lys^9 -Val^10 -Cys^11)-Trp^12 -NH2 [RC-160]	200 nM	0.1 nM	620 nM	21 nM
